Measurements reported in ChEMBL document CHEMBL5620431, “2,4-Diaryl-pyrimido[1,2-a]benzimidazole derivatives as novel anticancer agents endowed with potent anti-leukemia activity: Synthesis, biological evaluation and kinase profiling” (Eur J Med Chem, 2023).
Active and inactive are the calls of the source. The calls are words filed in the database; no cut-off is given here.

The chains behind the UniProt entries cited, without tags or fusion partners. Where a name states a change or a piece, a line headed by the entry shows the natural chain unless it says otherwise.
UniProt P49841: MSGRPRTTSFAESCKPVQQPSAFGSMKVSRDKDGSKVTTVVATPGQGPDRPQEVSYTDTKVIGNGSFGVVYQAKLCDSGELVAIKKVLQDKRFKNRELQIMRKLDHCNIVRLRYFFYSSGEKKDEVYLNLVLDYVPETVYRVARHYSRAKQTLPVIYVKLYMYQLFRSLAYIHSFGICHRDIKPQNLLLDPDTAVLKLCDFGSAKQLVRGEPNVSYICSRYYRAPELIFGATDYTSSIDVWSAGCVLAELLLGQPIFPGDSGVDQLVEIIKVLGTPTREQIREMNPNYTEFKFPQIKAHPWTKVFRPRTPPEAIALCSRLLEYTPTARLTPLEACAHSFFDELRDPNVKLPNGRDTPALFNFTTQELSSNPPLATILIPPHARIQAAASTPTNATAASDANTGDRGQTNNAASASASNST
UniProt Q02763: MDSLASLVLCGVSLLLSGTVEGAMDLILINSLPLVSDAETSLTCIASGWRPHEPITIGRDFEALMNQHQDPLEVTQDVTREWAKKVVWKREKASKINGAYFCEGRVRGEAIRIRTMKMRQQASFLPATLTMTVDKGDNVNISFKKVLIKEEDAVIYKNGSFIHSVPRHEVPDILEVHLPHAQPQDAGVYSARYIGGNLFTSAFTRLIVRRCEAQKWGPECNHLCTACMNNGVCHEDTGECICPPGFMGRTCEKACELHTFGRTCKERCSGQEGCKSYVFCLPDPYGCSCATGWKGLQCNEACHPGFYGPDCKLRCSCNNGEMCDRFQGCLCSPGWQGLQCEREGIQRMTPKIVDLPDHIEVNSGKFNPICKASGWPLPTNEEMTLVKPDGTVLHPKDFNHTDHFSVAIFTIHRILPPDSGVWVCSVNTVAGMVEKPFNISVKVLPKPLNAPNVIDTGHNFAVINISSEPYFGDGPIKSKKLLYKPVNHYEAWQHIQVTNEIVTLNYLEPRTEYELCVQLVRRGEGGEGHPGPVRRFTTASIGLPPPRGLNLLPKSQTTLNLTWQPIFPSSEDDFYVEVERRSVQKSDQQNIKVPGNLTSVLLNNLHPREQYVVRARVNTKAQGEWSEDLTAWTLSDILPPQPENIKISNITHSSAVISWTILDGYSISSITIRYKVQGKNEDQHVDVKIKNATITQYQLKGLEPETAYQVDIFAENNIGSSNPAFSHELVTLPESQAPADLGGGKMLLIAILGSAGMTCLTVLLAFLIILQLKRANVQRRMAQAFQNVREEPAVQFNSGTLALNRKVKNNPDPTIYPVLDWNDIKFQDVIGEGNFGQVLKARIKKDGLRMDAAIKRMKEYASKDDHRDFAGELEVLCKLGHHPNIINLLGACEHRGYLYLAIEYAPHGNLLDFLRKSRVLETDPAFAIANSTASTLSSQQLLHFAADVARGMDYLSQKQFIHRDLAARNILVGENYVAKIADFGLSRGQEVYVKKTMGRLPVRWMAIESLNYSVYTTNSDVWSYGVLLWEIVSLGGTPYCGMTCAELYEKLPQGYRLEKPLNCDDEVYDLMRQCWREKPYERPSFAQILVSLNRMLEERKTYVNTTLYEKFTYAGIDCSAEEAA

Legend:
[1] = biological target: Cyclin-dependent kinase 2 (Homo sapiens) (UniProt P24941); assay: Inhibition of CDK2 (unknown origin) using Histone H1 as substrate upto 20 uM incubated in presence of ATP
[2] = biological target: Glycogen synthase kinase-3 beta (Homo sapiens) (UniProt P49841); assay: Inhibition of GSK3beta (unknown origin) using ULight-PASVPPSPSLSRHSSPHQ(pS)ED as substrate upto 20 uM incubated for 1 hrs in presence of ATP by TR-FRET assay
[3] = biological target: T1, Tyrosine-protein kinase Tec (Homo sapiens) (UniProt P42680); assay: Inhibition of TEC (unknown origin) at 10 uM relative to control
T1 sequence (whole entry): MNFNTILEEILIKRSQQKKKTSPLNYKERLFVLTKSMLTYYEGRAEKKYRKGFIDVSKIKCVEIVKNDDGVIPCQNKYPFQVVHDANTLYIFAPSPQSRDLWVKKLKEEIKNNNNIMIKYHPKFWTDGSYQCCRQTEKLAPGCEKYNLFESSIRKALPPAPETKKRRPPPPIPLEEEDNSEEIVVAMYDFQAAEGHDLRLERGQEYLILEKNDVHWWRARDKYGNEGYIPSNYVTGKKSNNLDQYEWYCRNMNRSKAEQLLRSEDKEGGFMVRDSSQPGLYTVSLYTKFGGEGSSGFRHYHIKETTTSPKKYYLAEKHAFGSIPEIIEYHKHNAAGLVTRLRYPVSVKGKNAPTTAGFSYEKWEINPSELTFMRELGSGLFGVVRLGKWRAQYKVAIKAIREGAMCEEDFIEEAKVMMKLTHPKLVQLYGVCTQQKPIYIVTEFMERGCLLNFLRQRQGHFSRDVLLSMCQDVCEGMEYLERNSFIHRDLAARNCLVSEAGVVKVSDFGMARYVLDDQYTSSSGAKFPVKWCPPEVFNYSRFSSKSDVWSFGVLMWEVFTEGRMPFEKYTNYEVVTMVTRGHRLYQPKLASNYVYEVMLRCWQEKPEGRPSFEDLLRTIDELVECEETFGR

[4] = biological target: Angiopoietin-1 receptor (Homo sapiens) (UniProt Q02763); assay: Inhibition of TIE2 (unknown origin) at 1 uM relative to control
[5] = biological target: T2, Cytoplasmic tyrosine-protein kinase BMX (Homo sapiens) (UniProt P51813); assay: Inhibition of BMX (unknown origin) at 1 uM relative to control
T2 sequence (whole entry): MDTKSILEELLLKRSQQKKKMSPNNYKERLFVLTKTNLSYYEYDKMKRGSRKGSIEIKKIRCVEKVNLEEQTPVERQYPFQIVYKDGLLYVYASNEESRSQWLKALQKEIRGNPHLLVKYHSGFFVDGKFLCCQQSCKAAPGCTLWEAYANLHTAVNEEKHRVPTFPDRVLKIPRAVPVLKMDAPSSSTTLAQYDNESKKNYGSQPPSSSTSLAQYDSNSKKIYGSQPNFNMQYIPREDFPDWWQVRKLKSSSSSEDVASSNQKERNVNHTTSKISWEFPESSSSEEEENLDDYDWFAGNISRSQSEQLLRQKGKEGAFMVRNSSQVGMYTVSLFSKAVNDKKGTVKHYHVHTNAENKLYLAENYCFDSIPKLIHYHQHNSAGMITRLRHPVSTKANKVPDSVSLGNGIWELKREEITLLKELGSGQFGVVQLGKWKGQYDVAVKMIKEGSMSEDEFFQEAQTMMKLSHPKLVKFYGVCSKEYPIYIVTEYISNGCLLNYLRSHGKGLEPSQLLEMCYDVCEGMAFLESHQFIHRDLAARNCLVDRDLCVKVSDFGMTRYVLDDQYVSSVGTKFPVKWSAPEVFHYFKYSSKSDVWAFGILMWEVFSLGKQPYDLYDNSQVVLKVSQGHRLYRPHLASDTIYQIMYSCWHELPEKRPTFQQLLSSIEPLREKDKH

| Compound | inhibition [1] | inhibition [2] | inhibition [3] | inhibition [4] | inhibition [5] |
| --- | --- | --- | --- | --- | --- |
| COc1ccc(-c2cc(-c3ccc(N(C)C)cc3)n3c(n2)nc2ccccc23)cc1 | inactive | inactive | – | – | – |
| COc1ccc(-c2cc(-c3ccc(N4CCOCC4)cc3)n3c(n2)nc2ccccc23)cc1 | inactive | inactive | – | – | – |
| COc1ccc(-c2cc(-c3ccc4c(c3)OCO4)n3c(n2)nc2ccccc23)cc1 | inactive | inactive | – | – | – |
| COc1ccc(-c2cc(-c3cccc4ccccc34)n3c(n2)nc2ccccc23)cc1 | inactive | inactive | – | – | – |
| Clc1ccc(-c2cc(-c3cccc4ccccc34)n3c(n2)nc2ccccc23)cc1 | inactive | inactive | – | – | – |
| COc1ccc(-c2cc(-c3cccc4ccccc34)n3c(n2)nc2ccccc23)cc1OC | inactive | inactive | 82% | – | – |
| Cc1ccc(-c2cc(-c3ccc(N(C)C)cc3)n3c(n2)nc2ccccc23)cc1 | inactive | inactive | – | – | – |
| COc1ccc(-c2cc(-c3ccc(N4CCOCC4)cc3)n3c(n2)nc2ccccc23)cc1OC | inactive | inactive | – | – | – |
| Clc1ccc(-c2cc(-c3ccc4c(c3)OCO4)n3c(n2)nc2ccccc23)cc1 | inactive | inactive | – | – | – |
| COc1ccc(-c2cc(-c3ccc(N(C)C)cc3)n3c(n2)nc2ccccc23)cc1OC | inactive | inactive | – | – | – |
| COc1ccc(-c2cc(-c3ccc4c(c3)OCO4)n3c(n2)nc2ccccc23)cc1OC | inactive | inactive | – | – | – |
| CN(C)c1ccc(-c2cc(-c3ccc(Cl)cc3)nc3nc4ccccc4n23)cc1 | inactive | inactive | – | – | – |
| Cc1ccc(-c2cc(-c3cccc4ccccc34)n3c(n2)nc2ccccc23)cc1 | inactive | inactive | – | 27% | 16% |
| Cc1ccc(-c2cc(-c3ccc(N4CCOCC4)cc3)n3c(n2)nc2ccccc23)cc1 | inactive | inactive | – | – | – |
| Clc1ccc(-c2cc(-c3ccc(N4CCOCC4)cc3)n3c(n2)nc2ccccc23)cc1 | inactive | inactive | – | – | – |
| Cc1ccc(-c2cc(-c3ccc4c(c3)OCO4)n3c(n2)nc2ccccc23)cc1 | inactive | inactive | – | – | – |
